Here are results for one substance from patent US7754772B2, “Nitrosated nonsteroidal antiinflammatory compounds, compositions and methods of use” (NicOx, S.A., priority 2002, dated 2010).

This is a selection: effects in other tests are not listed, and their absence says nothing.

For the test, the system named is Male Sprague-Dawley rats, carrageenan paw edema. The experiment in a line: rat paw edema test (carrageenan), antiinflammatory activity. The conditions noted are these: oral gavage one hour prior to subplantar carrageenan, paw volume three hours later, expressed as ratio (Vehicle = 1). Background: The carrageenan paw model is a standard test of acute inflammation.

Regarding “Phosphonomethyl (2S)-2-(6-methoxy(2-naphthyl))propanoate 3-(nitrooxy) propylamine nitric acid salt”, the “Relative Activity Antiinflammation” value turned out to be 0.85.
